Laboratory results from the NIST ThermoML archive (doi:10.1016/j.jct.2016.01.017).

Experiment: activity coefficient (dimensionless); of the first substance listed, at infinite dilution; xn = mol fraction of the nth substance listed
Details: 100 kPa, Liquid, Chromatography, x1 = 0

CCCCOCCCC [dibutyl ether] + CCCC[n+]1ccc(C#N)cc1.O=S(=O)([N-]S(=O)(=O)C(F)(F)F)C(F)(F)F
Details	activity coefficient
308.15 K	19.3
318.15 K	18.6
328.15 K	18
338.15 K	17.4
348.15 K	16.8
358.15 K	16.3
368.15 K	15.9
